Measurements taken from patent EP4696711A1, “ANTIGEN BINDING MOLECULE SPECIFICALLY BINDING TO EGFR AND MUC1, DRUG CONJUGATE THEREOF, AND MEDICAL USE THEREOF” (Jiangsu Hengrui Pharmaceuticals Co., Ltd., priority 2023, dated 2024).

Tests used:
[1] = system: human non-small cell lung cancer HCC827 tumor-bearing mice; assay: Efficacy of ADCs in in vivo HCC827 CDX model; settings: 3 mpk
[2] = system: human pancreatic acinar epithelial carcinoma cell HPAC tumor-bearing mice; assay: Efficacy of ADCs in in vivo HPAC CDX model; settings: 3 mpk
HPAC cells [3] = settings: 6 days, CTG
HPAC cells [4] = assay: FACS-based affinity of monoclonal antibodies, bispecific antibodies and ADCs for tumor cells; assay type: binding, human; settings: unit inferred, / means undetectable
Experimental: The culture medium in the cell culture flask was discarded, and the cells were washed once with PBS and then digested with an appropriate amount of trypsin (Invitrogen, Cat. No. 25200072). HCC827, T47D, and HPAC cells were added to a 96-well plate at 100,000 cells/well. After the plate was centrifuged at 300 g for 5 min, the supernatant was discarded, and the cells were washed once with a PBS buffer containing 2% FBS. The antibodies were 5-fold diluted from a starting concentration of 20 µg/mL using a PBS buffer containing 2% FBS to obtain a total of 8 concentration gradients. The antibody samples were added at 100 µL/well, and the cells were resuspended and incubated at 4 °C for 1 h. After the plate was centrifuged at 300 g for 5 min, the supernatant was discarded, and the cells were washed twice with a PBS buffer containing 2% FBS. […] After the plate was centrifuged at 300 g for 5 min, the supernatant was discarded, and the cells were washed twice with a PBS buffer containing 2% FBS. The cells were resuspended in 100 µL of a PBS buffer containing 2% FBS and analyzed using an instrument.
The culture medium in the cell culture flask was discarded, and the cells were washed once with PBS and then digested with an appropriate amount of trypsin (Invitrogen, Cat. No. 25200072). […] The cells were resuspended in 100 µL of a PBS buffer containing 2% FBS and analyzed using an instrument.

[5] = one dose, intraperitoneal injection, D30
[6] = D1 D9, intraperitoneal injection, D30

B1: ZalH4-9-A: EGFR antibody ZalH4 conjugated to toxin 9-A; average DAR n = 5.94 (conjugate)
heavy: QVQLVESGGGVVQPGRSLRLSCAASGFTFSTYGMHWVRQAPGKGLEWVAVIWDDGSYKYYGDSVKGRFTISRDNSKNTLYLQMNSLRAEDTAVYYCARDGVTMVRGVMKDYFDYWGQGTLVTVSSASTKGPSVFPLAPSSKSTSGGTAALGCLVKDYFPEPVTVSWNSGALTSGVHTFPAVLQSSGLYSLSSVVTVPSSSLGTQTYICNVNHKPSNTKVDKKV[human IgG1 Fc not spelt out]
light: DIQLTQSPSSLSASVGDRVTITCRASQDISSALVWYQQKPGKAPKLLIYDASSLESGVPSRFSGSESGTDFTLTISSLQPEDFATYYCQQFNSYPLTFGGGTKVEIKRTVAAPSVFIFPPSDEQLKSGTASVVCLLNNFYPREAKVQWKVDNALQSGNSQESVTEQDSKDSTYSLSSTLTLSKADYEKHKVYACEVTHQGLSSPVTKSFNRGEC
For B1, the “Mean tumor volume (mm^3) D30” value [1, 5] was 38.30 mm^3, the “Tumor growth inhibition rate (%) D30” value [1, 5] was 122.10% and the “Number of animals per group (number of deaths)” value ([1]; number of deaths, one dose i.p.) was 10(0). For the same molecule, the “Mean tumor volume (mm^3) D30” value [2, 6] was 911.47 mm^3, the “Tumor growth inhibition rate (%) D30” value [2, 6] was 50.90% and the “Number of animals per group (number of deaths)” value ([2]; number of deaths, D1 D9 i.p.) was 8(0). For the same molecule, the IC50 (HPAC cells [3]) was 204 nM, the IMax% (HPAC cells [3]) was 60.81% and the EC50 (HPAC cells [4]) was 0.9 nM.
